The text below walks through data of the kinase profiling compilation of Christmann-Franck et al. (2016).

The chains behind the UniProt entries cited, without tags or fusion partners. Where a name states a change or a piece, a line headed by the entry shows the natural chain unless it says otherwise.
UniProt O43318: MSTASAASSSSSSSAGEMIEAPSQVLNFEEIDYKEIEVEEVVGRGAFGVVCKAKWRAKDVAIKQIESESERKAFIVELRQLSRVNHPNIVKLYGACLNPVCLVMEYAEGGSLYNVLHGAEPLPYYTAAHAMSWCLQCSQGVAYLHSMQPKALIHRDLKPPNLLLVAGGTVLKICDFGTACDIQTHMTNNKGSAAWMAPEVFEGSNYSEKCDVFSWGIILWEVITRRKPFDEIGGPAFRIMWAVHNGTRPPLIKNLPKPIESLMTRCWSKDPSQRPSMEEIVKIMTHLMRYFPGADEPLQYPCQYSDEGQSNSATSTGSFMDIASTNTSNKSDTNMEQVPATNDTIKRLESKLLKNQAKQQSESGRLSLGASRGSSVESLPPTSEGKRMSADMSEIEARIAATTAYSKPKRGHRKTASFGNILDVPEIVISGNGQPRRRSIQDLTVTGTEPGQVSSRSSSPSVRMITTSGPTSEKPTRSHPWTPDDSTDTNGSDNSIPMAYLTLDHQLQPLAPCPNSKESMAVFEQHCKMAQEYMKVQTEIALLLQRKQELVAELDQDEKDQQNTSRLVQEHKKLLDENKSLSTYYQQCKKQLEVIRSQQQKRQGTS
UniProt Q9H2K8: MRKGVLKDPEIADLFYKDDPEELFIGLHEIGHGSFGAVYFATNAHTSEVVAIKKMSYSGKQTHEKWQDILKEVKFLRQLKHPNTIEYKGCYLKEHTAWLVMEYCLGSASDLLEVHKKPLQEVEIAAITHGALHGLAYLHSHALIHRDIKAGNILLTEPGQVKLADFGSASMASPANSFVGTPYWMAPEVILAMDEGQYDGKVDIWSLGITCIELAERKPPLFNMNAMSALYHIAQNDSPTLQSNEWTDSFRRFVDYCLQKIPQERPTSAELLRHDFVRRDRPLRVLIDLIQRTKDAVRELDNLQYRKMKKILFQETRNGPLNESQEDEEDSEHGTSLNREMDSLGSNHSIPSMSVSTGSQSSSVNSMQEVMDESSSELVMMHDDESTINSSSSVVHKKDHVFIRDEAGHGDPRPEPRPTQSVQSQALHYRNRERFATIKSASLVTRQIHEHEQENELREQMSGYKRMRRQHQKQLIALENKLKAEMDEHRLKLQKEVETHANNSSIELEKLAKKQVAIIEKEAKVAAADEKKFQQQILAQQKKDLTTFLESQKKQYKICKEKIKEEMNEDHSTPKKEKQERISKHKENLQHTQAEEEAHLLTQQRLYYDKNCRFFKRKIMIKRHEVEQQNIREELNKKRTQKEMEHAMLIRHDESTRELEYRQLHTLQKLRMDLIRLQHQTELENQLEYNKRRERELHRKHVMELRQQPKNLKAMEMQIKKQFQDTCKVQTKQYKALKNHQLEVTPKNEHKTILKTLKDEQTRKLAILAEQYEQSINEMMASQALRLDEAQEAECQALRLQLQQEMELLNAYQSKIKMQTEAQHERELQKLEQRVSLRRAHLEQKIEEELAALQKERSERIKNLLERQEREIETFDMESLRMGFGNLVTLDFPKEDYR

In one assay the target is MAP3K7 (human) (UniProt O43318). Kind of assay: KINOMEscan competition binding. As to conditions: compound 10.0 µM.
Another assay deals with TAOK3 (human) (UniProt Q9H2K8). Kind of assay: KINOMEscan competition binding. The note with it: compound 10.0 µM.

On to `CCN1CCN(Cc2ccc(NC(=O)c3ccc(C)c(Oc4ccnc5[nH]ccc45)c3)cc2C(F)(F)F)CC1`, for which the kinase still bound, per cent of control on MAP3K7 (human) and on TAOK3 (human) was 0.15% throughout.
